Laboratory results: patent US5534542A, “Methods and materials relating to a bi-metallic cross-linking species” (priority 1994, dated 1996)

Test: Solubility of the cross-linker complex in solvents
Assay type: physicochemical
Settings: compared with the Step 9 crosslinker
Description: The cross-linker species of the present invention has been characterized by a combination of analytical and spectroscopic techniques. […] The complex is quite soluble in DMSO, although a warning has been issued concerning the compositions of DMSO solutions of cisplatin derivatives (Sundquist, 1987). The proton NMR spectrum of the complex in d7-DMF is poorly resolved, and the resonances due to the residual protons in the deuterated solvent tend to obscure parts of the spectrum of the complex.
This appears to be an effect of particle size on dissolution rate, since no differences can be discerned in the infrared spectra of the complex before or after this treatment. In particular there is no evidence for coordinated DMSO in the region 1000-1200 cm-^1.

5-(chloromercuri)-pentane-1,2-diammine(dimethylsulfoxide)-chloroplatinum(II) chloride [Complex 8]
aqueous solubility: improved aqueous solubilities
